Measured values published in patent US20230248660A1, “METHOD OF PREPARING LOXAPINE FILM ORAL DOSAGE FORM” (Intelgenx Corp., priority 2016, published 2023).

Test system: Porcine buccal mucosa
Assay: Loxapine diffusion through Porcine buccal mucosa (Franz cell)
Conditions: film formulation maintained at a neutral pH of from 6 to 8, or 6.5 to 7.5
Experimental: FIG. 1 graphically depicts 1 oxapine film diffusion through Porcine buccal mucosa (48-hrs-old unfrozen fresh mucosa) (Franz cell 1.76 cm2; 37° C.); saliva pH 6.8.
FIG. 2 graphically depicts 1 oxapine film diffusion through Porcine buccal mucosa (26-hrs-old unfrozen fresh mucosa) (Franz cell 1.76 cm2; 37° C.); saliva pH 6.8.
FIG. 3 graphically depicts 1 oxapine Solutions-diffusion through Porcine buccal mucosa (fresh mucosa kept at 4C for 48 hours) (Franz cell 1.76 cm2; 37° C.); saliva pH 6.8.
These penetration enhancers include sulphoxides (dimethylsulphoxide, decylmethyl sulfoxide), azones (laurocapram), pyrrolidones (2pyrrolidone, 2P), alcohols/alkanols (ethanol or decanol), glycols (propylene glycol), surfactants (anionic, sodium lauryl sulfate, sodium decyl sulfate), (Nonionic, Tween, PLE), (Cationic, chitosan, cetylpyridinium chloride), terpenes (1,8-cineole, menthol, and menthone, D-limonene), fatty acids (oleic acid, sodium caprate), and bile salts (sodium deoxycholate, sodium deoxyglycocholate).

absorption of loxapine through oral mucosa: significantly enhanced
Structure (SMILES): CN1CCN(C2=Nc3ccccc3Oc3ccc(Cl)cc32)CC1 [loxapine, 2-chloro-11-(4-methylpiperazin-1-yl) dibenzo[b,f] [1,4] loxazepine]
